Earlier results in patent US20240351965A1, “Synthesis and Evaluation of Novel (4-Hydroxyphenyl) Substituted Carbocycles as Potent and Selective Estrogen Receptor Beta Agonists” (Marquette University, priority 2021, published 2024).

Tested on: ovariectomized mouse model for menopause
Conditions: long-term oral dosing 0.5 mg/Kg; cited from earlier work

SMILES: OC[C@H]1CC[C@H](c2ccc(O)cc2)CC1
- drug-induced vasodilation: mitigates drug-induced vasodilation
- memory consolidation: has shown efficacy for memory consolidation
